# Data from patent publication US10717966B2, “Stem cell-derived hepatocytes in co-culture and uses thereof” (Colorado State University Research Foundation, priority 2014, dated 2020).
# System: CYP1A2
# Experiment: CYP1A2 induction in iMPCCs (7-ethoxyresorufin O-dealkylation)
# Format: cell-based, human
substance,measurement,value
β-naphthoflavone,CYP1A2 fold induction in iMPCCs as % of values in PHH-MPCCs,~70%
